Measured values taken from patent US4770870A, “Method for reducing pain associated with the administration of 4-sulfido-oxazaphosphorines and 4-sulfoalkylthio-oxazaphorphorines” (Asta Pharma Aktiengesellschaft, priority 1981, dated 1988).

How the values were obtained:
[1] = Acute toxicity (LD50), NMRI-mouse; settings: for LD50 (30 days observation time) / LD50 (90 days observation time): female NMRI-mice
L1210 leukemia cells = experiment: L1210 leukemia on the mouse, intraperitoneal chemotherapy; settings: L1210, mole ratio 1:5 for combination

O=P1(N(CCCl)CCCl)NC(SCCO)CCO1 (centres unmarked)
LD50 (30 days observation time) ([1]; intraperitoneal, 20 ml/kg): 238 mg/kg
LD50 (90 days observation time) ([1]; intraperitoneal, 20 ml/kg): 160 mg/kg
LD50 ([1]; intraperitoneal, injection volume 200 ml/kg, based on the P1 component, mole ratio P1:cysteine 1:5 for the combination): 460 mg/kg
LD50 ([1]; intravenous, P1 itself (without cysteine)): 290 mg/kg
LD50 (30 days observation time) ([1]; intravenous): 290 mg/kg
LD50 (90 days observation time) ([1]; intravenous): 215 mg/kg
increase of the LD50 ([1]; slower intravenous or intraperitoneal dosage, mouse, in the presence of a 5 fold molar excess of cysteine): 3-4 fold
therapeutic breadth TI50 (quotient of LD50 and CD50) (L1210 leukemia cells): 3.5
